The values below come from patent US20240360179A1, “STAPLED PEPTIDES AND METHODS THEREOF” (FOG PHARMACEUTICALS, INC., priority 2021, published 2024).

Amino acid sequences for entries named in this document (tags omitted).
UniProt P35222, whole entry: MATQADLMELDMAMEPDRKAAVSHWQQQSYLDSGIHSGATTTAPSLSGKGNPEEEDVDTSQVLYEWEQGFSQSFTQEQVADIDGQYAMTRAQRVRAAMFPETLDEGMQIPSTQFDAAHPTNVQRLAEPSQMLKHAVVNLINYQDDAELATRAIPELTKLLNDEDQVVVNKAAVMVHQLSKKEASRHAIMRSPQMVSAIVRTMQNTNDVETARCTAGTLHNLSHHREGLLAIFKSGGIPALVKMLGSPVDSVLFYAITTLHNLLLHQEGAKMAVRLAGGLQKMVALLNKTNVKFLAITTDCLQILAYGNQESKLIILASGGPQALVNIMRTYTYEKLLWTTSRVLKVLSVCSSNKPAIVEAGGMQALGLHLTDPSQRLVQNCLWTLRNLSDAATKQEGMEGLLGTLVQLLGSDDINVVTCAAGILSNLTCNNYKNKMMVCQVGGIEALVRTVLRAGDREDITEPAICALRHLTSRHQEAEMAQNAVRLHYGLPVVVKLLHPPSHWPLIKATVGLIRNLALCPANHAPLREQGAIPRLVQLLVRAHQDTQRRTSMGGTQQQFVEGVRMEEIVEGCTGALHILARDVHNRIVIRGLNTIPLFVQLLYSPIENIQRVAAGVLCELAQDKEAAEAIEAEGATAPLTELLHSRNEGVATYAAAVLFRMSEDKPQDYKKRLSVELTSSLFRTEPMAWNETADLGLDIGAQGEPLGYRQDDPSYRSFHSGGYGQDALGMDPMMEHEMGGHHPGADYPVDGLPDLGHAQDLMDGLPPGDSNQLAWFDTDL

Each structure is given as a SMILES string.

The target of test [1] is T1, full-length B-Catenin (Uniprot ID P35222) (Homo sapiens, UniProt P35222).
T1 construct: 10 nM full-length B-Catenin (Uniprot ID P35222)
In words: biochemical. It is filed as binding. The note with it: beta-Catenin FP IC50 (nM), competition fluorescence polarization. In general terms: Polarisation of emitted light reports the rotation of a fluorescent probe.

Test [2] addresses beta-catenin/TCF4 interaction (Homo sapiens, UniProt P35222). The test can be described thus: cell-based. As to conditions: NanoBRET Abs IC50 (uM). More on the design: host or cells: HEK293.

Broadly, the IC50 is the concentration needed to halve the response being measured. `CC(=O)N1CCC[C@]12CC=CCCCC1(CCCC=CCCCOC(=O)N3CC[C@@]4(C3)NC(=O)[C@H](CCCCNC(=O)CC[C@@H](C(=O)N[C@@H](C)C(N)=O)NC(=O)[C@H](Cc3csc5ccccc35)NC(=O)[C@H](Cc3ccccc3Br)NC4=O)NC(=O)[C@H](Cc3ccccc3)NC(=O)[C@H](C)NC(=O)C(C)(C)NC(=O)[C@H](Cc3cccc(C(=O)O)c3)NC(=O)[C@H](CC(=O)O)NC1=O)NC(=O)[C@H](CC(C)(C)C)NC(=O)[C@H](CC(=O)O)NC2=O` (relative stereo) [I-295, Ac-PL3-Asp-Npg-B5-Asp-3COOHF-Aib-Ala-Phe-Lys*3-PyrS2-2BrF-BztA-GlnR*3-Ala-NH2]: the figures for the IC50 in test [1] and in test [2] were below 50 nM and below 1.5 µM, respectively.
For `CC(=O)N1CCC[C@]12CC=CCCCC1(CCCC=CCCCOC(=O)N3CC[C@@]4(C3)NC(=O)[C@H](CCCCNC(=O)CC[C@@H](C(=O)N[C@@H](C)C(N)=O)NC(=O)[C@H](Cc3csc5ccccc35)NC(=O)[C@H](Cc3ccccc3Cl)NC4=O)NC(=O)[C@H](Cc3ccccc3)NC(=O)[C@H](C)NC(=O)C(C)(C)NC(=O)[C@H](Cc3cccc(C(=O)O)c3)NC(=O)[C@H](CC(=O)O)NC1=O)NC(=O)[C@H](CC(C)(C)C)NC(=O)[C@H](CC(=O)O)NC2=O` (relative stereo) [I-296, Ac-PL3-Asp-Npg-B5-Asp-3COOHF-Aib-Ala-Phe-Lys*3-PyrS2-2ClF-BztA-GlnR*3-Ala-NH2], in that order: below 50 nM and 1.5 to 3 µM.
The like results for `CC(=O)N1CCC[C@]12CC=CCCCC1(CCCC=CCCCOC(=O)N3CC[C@@]4(C3)NC(=O)[C@H](CCCCNC(=O)CC[C@@H](C(=O)N[C@@H](C)C(N)=O)NC(=O)[C@H](Cc3csc5ccccc35)NC(=O)[C@H](Cc3ccccc3C#N)NC4=O)NC(=O)[C@H](Cc3ccccc3)NC(=O)[C@H](C)NC(=O)C(C)(C)NC(=O)[C@H](Cc3cccc(C(=O)O)c3)NC(=O)[C@H](CC(=O)O)NC1=O)NC(=O)[C@H](CC(C)(C)C)NC(=O)[C@H](CC(=O)O)NC2=O` (relative stereo) [I-297, Ac-PL3-Asp-Npg-B5-Asp-3COOHF-Aib-Ala-Phe-Lys*3-PyrS2-2CNF-BztA-GlnR*3-Ala-NH2] were, in that order, below 50 nM and 1.5 to 3 µM.
The like results for `CC(=O)N1CCC[C@]12CC=CCCCC1(CCCC=CCCCOC(=O)N3CC[C@@]4(C3)NC(=O)[C@H](CCCCNC(=O)CC[C@@H](C(=O)N[C@@H](C)C(N)=O)NC(=O)[C@H](Cc3csc5ccccc35)NC(=O)[C@H](Cc3ccccc3[N+](=O)[O-])NC4=O)NC(=O)[C@H](Cc3ccccc3)NC(=O)[C@H](C)NC(=O)C(C)(C)NC(=O)[C@H](Cc3cccc(C(=O)O)c3)NC(=O)[C@H](CC(=O)O)NC1=O)NC(=O)[C@H](CC(C)(C)C)NC(=O)[C@H](CC(=O)O)NC2=O` (relative stereo) [I-298, Ac-PL3-Asp-Npg-B5-Asp-3COOHF-Aib-Ala-Phe-Lys*3-PyrS2-2NO2F-BztA-GlnR*3-Ala-NH2] were, in that order, below 50 nM and below 1.5 µM.
As for `CC(=O)N1CCC[C@]12CC=CCCCC1(CCCC=CCCCOC(=O)N3CC[C@@]4(C3)NC(=O)[C@H](CCCCNC(=O)CC[C@@H](C(=O)N[C@@H](C)C(N)=O)NC(=O)[C@H](Cc3csc5ccccc35)NC(=O)[C@H](Cc3ccccn3)NC4=O)NC(=O)[C@H](Cc3ccccc3)NC(=O)[C@H](C)NC(=O)C(C)(C)NC(=O)[C@H](Cc3cccc(C(=O)O)c3)NC(=O)[C@H](CC(=O)O)NC1=O)NC(=O)[C@H](CC(C)(C)C)NC(=O)[C@H](CC(=O)O)NC2=O` (relative stereo) [I-299, Ac-PL3-Asp-Npg-B5-Asp-3COOHF-Aib-Ala-Phe-Lys*3-PyrS2-2PyrA-BztA-GlnR*3-Ala-NH2], the IC50 in test [1] is below 50 nM; in test [2], 1.5 to 3 µM.
The like results for `CC(=O)N1CCC[C@]12CC=CCCCC1(CCCC=CCCCOC(=O)N3CC[C@@]4(C3)NC(=O)[C@H](CCCCNC(=O)CC[C@@H](C(=O)N[C@@H](C)C(N)=O)NC(=O)[C@H](Cc3csc5ccccc35)NC(=O)[C@H](Cc3cccnc3)NC4=O)NC(=O)[C@H](Cc3ccccc3)NC(=O)[C@H](C)NC(=O)C(C)(C)NC(=O)[C@H](Cc3cccc(C(=O)O)c3)NC(=O)[C@H](CC(=O)O)NC1=O)NC(=O)[C@H](CC(C)(C)C)NC(=O)[C@H](CC(=O)O)NC2=O` (relative stereo) [I-300, Ac-PL3-Asp-Npg-B5-Asp-3COOHF-Aib-Ala-Phe-Lys*3-PyrS2-3PyrA-BztA-GlnR*3-Ala-NH2] were, in that order, below 50 nM and 3 to 10 µM.
For `CC(=O)N1CCC[C@]12CC=CCCCC1(CCCC=CCCCOC(=O)N3CC[C@@]4(C3)NC(=O)[C@H](CCCCNC(=O)CC[C@@H](C(=O)N[C@@H](C)C(N)=O)NC(=O)[C@H](Cc3csc5ccccc35)NC(=O)[C@H](Cc3c[nH]cn3)NC4=O)NC(=O)[C@H](Cc3ccccc3)NC(=O)[C@H](C)NC(=O)C(C)(C)NC(=O)[C@H](Cc3cccc(C(=O)O)c3)NC(=O)[C@H](CC(=O)O)NC1=O)NC(=O)[C@H](CC(C)(C)C)NC(=O)[C@H](CC(=O)O)NC2=O` (relative stereo) [I-302, Ac-PL3-Asp-Npg-B5-Asp-3COOHF-Aib-Ala-Phe-Lys*3-PyrS2-His-BztA-GlnR*3-Ala-NH2], in that order: below 50 nM and above 10 µM.
For `CC(=O)N1CCC[C@]12CC=CCCCC1(CCCC=CCCCOC(=O)N3CC[C@@]4(C3)NC(=O)[C@H](CCCCNC(=O)CC[C@@H](C(=O)N[C@@H](C)C(N)=O)NC(=O)[C@H](Cc3csc5ccccc35)NC(=O)[C@H](Cc3ccsc3)NC4=O)NC(=O)[C@H](Cc3ccccc3)NC(=O)[C@H](C)NC(=O)C(C)(C)NC(=O)[C@H](Cc3cccc(C(=O)O)c3)NC(=O)[C@H](CC(=O)O)NC1=O)NC(=O)[C@H](C)NC(=O)[C@H](CC(=O)O)NC2=O` (relative stereo) [I-304, Ac-PL3-Asp-Ala-B5-Asp-3COOHF-Aib-Ala-Phe-Lys*3-PyrS2-3Thi-BztA-GlnR*3-Ala-NH2], in that order: below 50 nM and 3 to 10 µM.
As to `CC(=O)N1CCC[C@]12CC=CCCCC1(CCCC=CCCCOC(=O)N3CC[C@@]4(C3)NC(=O)[C@H](CCCCNC(=O)CC[C@@H](C(=O)N[C@@H](C)C(N)=O)NC(=O)[C@H](Cc3csc5ccccc35)NC(=O)[C@H](Cc3ccsc3)NC4=O)NC(=O)[C@H](Cc3ccccc3)NC(=O)[C@H](C)NC(=O)C(C)(C)NC(=O)[C@H](Cc3cccc(C(=O)O)c3)NC(=O)[C@H](CC(=O)O)NC1=O)NC(=O)[C@H](Cc1ccc(O)cc1)NC(=O)[C@H](CC(=O)O)NC2=O` (relative stereo) [I-305, Ac-PL3-Asp-Tyr-B5-Asp-3COOHF-Aib-Ala-Phe-Lys*3-PyrS2-3Thi-BztA-GlnR*3-Ala-NH2], the figures for the IC50 in test [1] and in test [2] were below 50 nM and 3 to 10 µM, respectively.
The like results for `CC(=O)N1CCC[C@]12CC=CCCCC1(CCCC=CCCCOC(=O)N3CC[C@@]4(C3)NC(=O)[C@H](CCCCNC(=O)CC[C@@H](C(=O)N[C@@H](C)C(N)=O)NC(=O)[C@H](Cc3csc5ccccc35)NC(=O)[C@H](Cc3ccsc3)NC4=O)NC(=O)[C@H](Cc3ccccc3)NC(=O)[C@H](C)NC(=O)C(C)(C)NC(=O)[C@H](Cc3cccc(C(=O)O)c3)NC(=O)[C@H](CC(=O)O)NC1=O)NC(=O)[C@H](Cc1c[nH]c3ccccc13)NC(=O)[C@H](CC(=O)O)NC2=O` (relative stereo) [I-306, Ac-PL3-Asp-Trp-B5-Asp-3COOHF-Aib-Ala-Phe-Lys*3-PyrS2-3Thi-BztA-GlnR*3-Ala-NH2] were, in that order, below 50 nM and above 10 µM.
As for `CC(=O)N1CCC[C@]12CC=CCCCC1(CCCC=CCCCOC(=O)N3CC[C@@]4(C3)NC(=O)[C@H](CCCCNC(=O)CC[C@@H](C(=O)N[C@@H](C)C(N)=O)NC(=O)[C@H](Cc3csc5ccccc35)NC(=O)[C@H](Cc3ccsc3)NC4=O)NC(=O)[C@H](Cc3ccccc3)NC(=O)[C@H](C)NC(=O)C(C)(C)NC(=O)[C@H](Cc3cccc(C(=O)O)c3)NC(=O)[C@H](CC(=O)O)NC1=O)NC(=O)[C@H](CO)NC(=O)[C@H](CC(=O)O)NC2=O` (relative stereo) [I-307, Ac-PL3-Asp-Ser-B5-Asp-3COOHF-Aib-Ala-Phe-Lys*3-PyrS2-3Thi-BztA-GlnR*3-Ala-NH2], the values for the IC50 in test [1] and in test [2] were below 50 nM and above 10 µM, respectively.
Consider `CCCCCCCC[C@@H]1NC(=O)[C@H](CC(=O)O)NC(=O)[C@]2(CC=CCCCC3(CCCC=CCCCOC(=O)N4CC[C@@]5(C4)NC(=O)[C@H](CCCCNC(=O)CC[C@@H](C(=O)N[C@@H](C)C(N)=O)NC(=O)[C@H](Cc4csc6ccccc46)NC(=O)[C@H](Cc4ccsc4)NC5=O)NC(=O)[C@H](Cc4ccccc4)NC(=O)[C@H](C)NC(=O)C(C)(C)NC(=O)[C@H](Cc4cccc(C(=O)O)c4)NC(=O)[C@H](CC(=O)O)NC3=O)NC1=O)CCCN2C(C)=O` (relative stereo) [I-311, Ac-PL3-Asp-OctG-B5-Asp-3COOHF-Aib-Ala-Phe-Lys*3-PyrS2-3Thi-BztA-GlnR*3-Ala-NH2], for which the values for the IC50 in test [1] and in test [2] (absolute IC50) were below 50 nM and 1.5 to 3 µM, respectively.
For `CC(=O)N1CCC[C@]12CC=CCCCC1(CCCC=CCCCOC(=O)N3CC[C@@]4(C3)NC(=O)[C@H](CCCCNC(=O)CC[C@@H](C(=O)N[C@@H](C)C(N)=O)NC(=O)[C@H](Cc3csc5ccccc35)NC(=O)[C@H](Cc3ccsc3)NC4=O)NC(=O)[C@H](Cc3ccccc3)NC(=O)[C@H](C)NC(=O)C(C)(C)NC(=O)[C@H](Cc3cccc(C(=O)O)c3)NC(=O)[C@H](CC(=O)O)NC1=O)NC(=O)[C@H](CC1CCC1)NC(=O)[C@H](CC(=O)O)NC2=O` (relative stereo) [I-312, Ac-PL3-Asp-Cba-B5-Asp-3COOHF-Aib-Ala-Phe-Lys*3-PyrS2-3Thi-BztA-GlnR*3-Ala-NH2], in that order: below 50 nM and 1.5 to 3 µM.
Turning to `CC(=O)N1CCC[C@]12CC=CCCCC1(CCCC=CCCCOC(=O)N3CC[C@@]4(C3)NC(=O)[C@H](CCCCNC(=O)CC[C@@H](C(=O)N[C@@H](C)C(N)=O)NC(=O)[C@H](Cc3csc5ccccc35)NC(=O)[C@H](Cc3ccsc3)NC4=O)NC(=O)[C@H](Cc3ccccc3)NC(=O)[C@H](C)NC(=O)C(C)(C)NC(=O)[C@H](Cc3cccc(C(=O)O)c3)NC(=O)[C@H](CC(=O)O)NC1=O)NC(=O)[C@H](CCCN1CCOCC1)NC(=O)[C@H](CC(=O)O)NC2=O` (relative stereo) [I-313, Ac-PL3-Asp-MorphNva-B5-Asp-3COOHF-Aib-Ala-Phe-Lys*3-PyrS2-3Thi-BztA-GlnR*3-Ala-NH2], the IC50 in test [1] was below 50 nM; in test [2] (absolute IC50), above 10 µM.
